# Experimental data taken from patent EP0977560B1, “IBUPROFEN THIOESTERS AS INHIBITORS OF Nf-kappaB-DEPENDENT PAIN AND INFLAMMATION MEDIATOR FORMATION” (PAZ Arzneimittel- Entwicklungsgesellschaft mbH, priority 1997, dated 1998).
# System: PGHS-2 (Cyclooxygenase-2)
# Assay: Formation of PGHS-2 in LPS-induced monocytes (method after Brideau et al., human whole blood assay)
# Assay type: cell-based
# Details: LPS-induced Monozyten, 24 Std.; R-Ibuprofenoyl-CoA 0.5, 0.25, 0.05 mM; Ibuprofen, razemisch 1.0, 0.1, 0.05 mM; Abbildung 2
# Text: Inkubation von LPS-induzierten Monozyten (24 Std.). […] Methode nach: BRIDEAU, C., KARGMAN, S., LIU, S., DALLOB, A.L., EHRICH, E.W., RODGER, I.W. & CHAN, C.C. […] A human whole blood assay for clinical evaluation of biochemical efficacy of cyclooxygenase inhibitors. Inflamm. Res., 45, 68-74.
smiles,measurement,value
"CC(C)Cc1ccc(C(C)C(=O)O)cc1 (racemic) [razemischem Ibuprofen, Ibuprofen]",Bildung von PGHS-2 (Cyclooxygenase-2),im Gegensatz
